Consider two substances from patent US11820970B2, “High throughput protein-protein interaction screening in yeast liquid culture” (University of Washington, priority 2016, dated 2023).

By UniProt entry, the sequences of proteins in these tests, tags left out.
UniProt P10415, whole entry, species assumed: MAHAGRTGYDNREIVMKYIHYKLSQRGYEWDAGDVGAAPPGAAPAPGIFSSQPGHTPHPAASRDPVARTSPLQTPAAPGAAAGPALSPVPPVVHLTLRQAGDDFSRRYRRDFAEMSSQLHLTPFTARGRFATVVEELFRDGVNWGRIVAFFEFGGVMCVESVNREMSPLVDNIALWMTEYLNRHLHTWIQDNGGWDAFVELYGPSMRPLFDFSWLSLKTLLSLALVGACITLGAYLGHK
UniProt Q07817, whole entry, species assumed: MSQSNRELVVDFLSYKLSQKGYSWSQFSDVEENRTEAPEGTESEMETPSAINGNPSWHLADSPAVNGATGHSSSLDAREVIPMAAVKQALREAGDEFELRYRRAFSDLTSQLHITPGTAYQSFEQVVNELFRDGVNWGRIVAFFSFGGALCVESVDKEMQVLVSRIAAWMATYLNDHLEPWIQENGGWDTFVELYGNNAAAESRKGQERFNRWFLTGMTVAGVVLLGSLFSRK

Assay [1] concerns the target Bcl2 (Homo sapiens, UniProt P10415). Put plainly: Pairwise (two-strain) yeast mating assay, flow cytometry of diploid percent. The note with it: SAP pair with Bcl2 displayed on MATa, Sag1 knockout, turbulent liquid culture. The format is cell-based.
Assay [2] addresses BclXL (Homo sapiens, UniProt Q07817). The assay is described as follows: Batched (one-pot) yeast mating assay, barcode sequencing. The format is cell-based. The note with it: vs BclXL. The procedure: For a many-to-many (also see Example 6) batched mating assay, multiple haploid yeast strains of each mating type are combined in a fresh 3 mL YPD culture. The recombinant MATa yeast strains are added in equal concentrations for a total density of 100 cells/μL and the recombinant MATalpha yeast strains are added in equal concentrations for a total density of 600 cells/μL. After 6 hours of growth, hygromycin is added at 100 ng/μL and β-estradiol (PE) is added at 200 ng/μL. 20 hours after the initial culture inoculation, 1 mL of cells are pelleted. 2 μL of cells are removed from the pellet, lysed with 0.2% SDS, spun down to remove all cellular debris, and diluted in water. […] The frequency that a particular pair of barcodes is observed relative to the total number of reads provides a relative measure for the number of matings that were caused by the SAP pair associated with those two particular barcodes.
LIBRARY MATING ASSAYS: For library mating assays in which each isogenic strain was constructed individually and the barcode associated with each synthetic adhesion protein was determined with Sanger sequencing, one or both of the isogenic haploid strains from a one-to-one mating were replaced with a library of strains, all of the same mating type, displaying unique barcoded synthetic adhesion proteins. […]

“Bim: natural BH3 domain peptide binder of Bcl2 family proteins”: the “mating efficiency / recovery of mating (in words)” value in assay [1] is “recovers mating efficiency”. In addition, in assay [2], the “binding in batched mating (interaction profile, in words)” value is reported as “nonspecifically”. As to “Puma: natural BH3 domain peptide binder of Bcl2 family proteins (EEQWAREIGAQLRRMADDLNAQYERR)”, the “binding in batched mating (interaction profile, in words)” value in assay [2] is “nonspecifically”.
